{
  "sequences": {"note": "The chains behind the UniProt entries cited, without tags or fusion partners. Residues count along the entry.", "UniProt P00743, 41-180 partner limits assumed": "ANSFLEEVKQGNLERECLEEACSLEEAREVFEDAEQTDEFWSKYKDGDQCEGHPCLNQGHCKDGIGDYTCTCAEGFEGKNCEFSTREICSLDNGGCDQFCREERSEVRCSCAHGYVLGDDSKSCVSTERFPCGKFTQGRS", "UniProt P00743, 234-492 limits assumed": "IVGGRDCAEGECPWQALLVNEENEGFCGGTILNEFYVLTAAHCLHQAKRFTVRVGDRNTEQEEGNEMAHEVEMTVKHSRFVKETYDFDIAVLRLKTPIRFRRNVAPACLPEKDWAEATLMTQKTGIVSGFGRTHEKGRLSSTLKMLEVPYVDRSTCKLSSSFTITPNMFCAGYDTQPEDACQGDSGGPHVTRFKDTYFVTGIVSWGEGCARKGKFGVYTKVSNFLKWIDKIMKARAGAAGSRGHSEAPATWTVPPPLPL"},
  "source": "patent US6242173A",
  "about": "“Immunoassays for catalytically-active, serine proteases” (University of Vermont and State Agriculatural College, priority 1992, dated 2001)",
  "target": "factor Xa (Bos taurus, UniProt P00743)",
  "test": "Removal of active enzyme from zymogen with biotinylated chloromethyl ketone and avidin matrix",
  "settings": "bovine factor X doped with 10% (w/w) factor Xa",
  "data": [
    {"substance": "Biotinyl-ε-aminocaproyl-L-tyrosylglycyl-L-arginine chloromethyl ketone [BC-YGR-CK]", "values": [
      {"measurement": "factor Xa remaining after treatment and avidin matrix", "value": "Identical results"}
    ]}
  ]
}
